# Test: Cyclic voltammetry, direct electro-oxidation on screen-printed carbon electrodes
# Format: physicochemical
# Experimental: All electrochemical experiments were performed on screen-printed carbon electrodes with an Ag/AgCl reference electrode in a 3-electrode mode of operation. Cyclic Voltammetry parameters were controlled via a computational program; scan rate: 0.1 V/s, start potential: −0.5V, switch potential: 0.9V, end potential: −0.5V.
# Bilirubin (mixed isomers), Fatty-acid free Human serum albumin, Bilirubin conjugated ditaurate disodium salt, Sodium hydroxide, Tris(hydroxymethyl)aminomethane, Hydrochloric acid, Tetrabromophenol Blue were purchased from Sigma Aldrich, UK. Deionized water (resistivity 18.2MΩ cm) was used in the preparation of solutions. Bilirubin was dissolved in 0.05M sodium hydroxide to prepare 1 mM stock and gently vortexed till homogenously mixed. This stock solution was then diluted using 0.05 M Tris-HCl (pH 8.5) to the desired working concentration. Human serum albumin was prepared in 0.05M Tris-HCl (pH 8.5) and vortexed till homogenously mixed. Bromophenol blue was prepared in 0.05M Tris-HCl (pH 8.5). Conjugated bilirubin was dissolved in 0.05M Tris-HCl (pH 8.5) and mixed till homogenous. All tubes containing bilirubin were protected from light.
# Regarding the detection of unbound unconjugated bilirubin, it was diluted to a physiologically relevant concentration (100 μM) and analyzed by cyclic voltammetry. […] Also, the peak at 0.15V was noticeably absent in second and third scans. […]
substance,measurement,setting,value
"albumin: Fatty-acid free Human serum albumin, purchased from Sigma Aldrich",anodic peak Epa,"first/characteristic anodic peak, carbon electrodes, Ag/AgCl reference, scan rate 0.1 V/s, 0.05M Tris-HCl pH 8.5",0.55 V
same,broad peak Epa across all concentrations,wider range 0.175 g/dL to 30 g/dL,0.6 V
